Test results from PubChem BioAssay (NCI).
The list shows a part of the results, in another mix than the full data.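 Single-concentration screen, 48 h exposure, 96-well plates. Endpoint: percent growth. Below 10 = active.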 The source made the active and inactive calls.

Assays:
Assay in all cases: NCI-60 one-dose screen, 48 h (100 = growth as untreated, 0 = no growth, -100 = all killed)
HCT-15 colon = conditions: 10 µM unless noted
HT29 colon = conditions: 10 µM unless noted
SNB-75 CNS = conditions: 10 µM unless noted
SNB-19 CNS = conditions: 10 µM unless noted
U251 CNS = conditions: 10 µM unless noted
PC-3 prostate = conditions: 10 µM unless noted
SK-MEL-5 melanoma = conditions: 10 µM unless noted
UACC-62 melanoma = conditions: 10 µM unless noted
LOX IMVI melanoma = conditions: 10 µM
SK-MEL-28 melanoma = conditions: 10 µM unless noted
SK-MEL-2 melanoma = conditions: 10 µM unless noted
EKVX NSCLC = conditions: 10 µM unless noted
SN12C renal = conditions: 10 µM unless noted
UO-31 renal = conditions: 10 µM unless noted
TK-10 renal = conditions: 10 µM unless noted
ACHN renal = conditions: 10 µM unless noted
CAKI-1 renal = conditions: 10 µM unless noted
A498 renal = conditions: 10 µM unless noted
CCRF-CEM leukemia = conditions: 10 µM unless noted
HL-60(TB) leukemia = conditions: 10 µM unless noted

Measured: growth

COC(=O)C1=C(C)O[P@](=O)(OC)CCC1c1ccccc1 (stereo not given in full)
inactive: HCT-15 colon 104% | HT29 colon 100% | SNB-75 CNS 89.6% | SNB-19 CNS 107% | U251 CNS 103% | PC-3 prostate 93.9% | SK-MEL-5 melanoma 110% | UACC-62 melanoma 93.8% | LOX IMVI melanoma 105% | SK-MEL-28 melanoma 104% | SK-MEL-2 melanoma 107% | EKVX NSCLC 100% | SN12C renal 99.8% | UO-31 renal 92.4% | TK-10 renal 105% | ACHN renal 105% | CAKI-1 renal 97.2% | A498 renal 95.9% | CCRF-CEM leukemia 110%

CCOCCN(CCCl)Cc1ccccc1
inactive: HCT-15 colon 111% | HT29 colon 95.5% | SNB-75 CNS 100% | SNB-19 CNS 103% | U251 CNS 96.3% | PC-3 prostate 88.6% | SK-MEL-5 melanoma 104% | UACC-62 melanoma 99.8% | LOX IMVI melanoma 97.5% | SK-MEL-28 melanoma 105% | SK-MEL-2 melanoma 94.6% | EKVX NSCLC 107% | SN12C renal 101% | UO-31 renal 91.4% | TK-10 renal 92.7% | ACHN renal 103% | A498 renal 109% | HL-60(TB) leukemia 92.1% | CCRF-CEM leukemia 98.1%

Nc1cccc([As](=O)(O)c2ccccc2)c1
inactive: HCT-15 colon 98.2% | HT29 colon 109% | SNB-75 CNS 106% | SNB-19 CNS 105% | U251 CNS 96.1% | PC-3 prostate 110% | SK-MEL-5 melanoma 105% | UACC-62 melanoma 98.8% | LOX IMVI melanoma 101% | SK-MEL-28 melanoma 122% | SK-MEL-2 melanoma 99.5% | EKVX NSCLC 118% | SN12C renal 100% | UO-31 renal 93.5% | TK-10 renal 112% | ACHN renal 105% | A498 renal 96.9% | HL-60(TB) leukemia 106% | CCRF-CEM leukemia 103%

CC(C)=N/N=C(\N)N[N+](=O)[O-]
inactive: HCT-15 colon 107% | HT29 colon 103% | SNB-75 CNS 93.4% | SNB-19 CNS 112% | U251 CNS 97.4% | PC-3 prostate 96.5% | SK-MEL-5 melanoma 107% | UACC-62 melanoma 116% | LOX IMVI melanoma 97.9% | SK-MEL-28 melanoma 119% | SK-MEL-2 melanoma 117% | EKVX NSCLC 101% | SN12C renal 110% | UO-31 renal 109% | TK-10 renal 105% | ACHN renal 108% | CAKI-1 renal 104% | HL-60(TB) leukemia 130% | CCRF-CEM leukemia 93.6%

COP(OC)c1ccc(C)cc1
inactive: HCT-15 colon 111% | HT29 colon 89.9% | SNB-75 CNS 106% | SNB-19 CNS 113% | U251 CNS 103% | PC-3 prostate 96.4% | SK-MEL-5 melanoma 108% | UACC-62 melanoma 102% | LOX IMVI melanoma 104% | SK-MEL-28 melanoma 112% | SK-MEL-2 melanoma 96.7% | EKVX NSCLC 121% | SN12C renal 105% | UO-31 renal 115% | TK-10 renal 117% | ACHN renal 105% | CAKI-1 renal 107% | A498 renal 96.4% | HL-60(TB) leukemia 73.1% | CCRF-CEM leukemia 86.4%

CC1CN1P(=O)(Nc1ncccn1)N1CC1C (stereo not given)
inactive: HCT-15 colon 104% | HT29 colon 99.1% | SNB-75 CNS 71% | SNB-19 CNS 107% | U251 CNS 106% | PC-3 prostate 91.6% | SK-MEL-5 melanoma 105% | UACC-62 melanoma 104% | LOX IMVI melanoma 91.7% | SK-MEL-28 melanoma 111% | SK-MEL-2 melanoma 114% | EKVX NSCLC 109% | SN12C renal 110% | UO-31 renal 87.7% | TK-10 renal 108% | ACHN renal 95.9% | CAKI-1 renal 107% | A498 renal 120% | HL-60(TB) leukemia 83% | CCRF-CEM leukemia 107%

O=P(Cl)(N1CCCCCC1)N1CCCCCC1
inactive: HCT-15 colon 105% | HT29 colon 102% | SNB-75 CNS 101% | SNB-19 CNS 97% | U251 CNS 101% | PC-3 prostate 93.9% | SK-MEL-5 melanoma 98.7% | UACC-62 melanoma 97.2% | LOX IMVI melanoma 101% | SK-MEL-28 melanoma 101% | SK-MEL-2 melanoma 103% | EKVX NSCLC 97.5% | SN12C renal 101% | UO-31 renal 94.8% | TK-10 renal 96.9% | ACHN renal 103% | CAKI-1 renal 99.6% | HL-60(TB) leukemia 100% | CCRF-CEM leukemia 113%

CN(CCCl)/N=N/c1nc2nc[nH]c(=O)c2[nH]1
inactive: HCT-15 colon 103% | HT29 colon 98.7% | SNB-75 CNS 93.1% | SNB-19 CNS 103% | U251 CNS 101% | PC-3 prostate 98.7% | SK-MEL-5 melanoma 103% | UACC-62 melanoma 101% | LOX IMVI melanoma 98.4% | SK-MEL-28 melanoma 113% | SK-MEL-2 melanoma 102% | EKVX NSCLC 98.4% | SN12C renal 110% | UO-31 renal 91% | TK-10 renal 95.6% | ACHN renal 99.5% | A498 renal 100% | HL-60(TB) leukemia 86.3% | CCRF-CEM leukemia 101%

ClCCN(CCc1ccccc1)Cc1ccccc1
inactive: HCT-15 colon 100% | HT29 colon 93.8% | SNB-75 CNS 102% | SNB-19 CNS 107% | U251 CNS 91.8% | PC-3 prostate 92.6% | SK-MEL-5 melanoma 99% | UACC-62 melanoma 99.5% | LOX IMVI melanoma 95.1% | SK-MEL-28 melanoma 109% | SK-MEL-2 melanoma 99.4% | EKVX NSCLC 99.7% | UO-31 renal 93.7% | TK-10 renal 90.1% | ACHN renal 105% | CAKI-1 renal 101% | A498 renal 94.4% | HL-60(TB) leukemia 98.8% | CCRF-CEM leukemia 102%

CC(Cc1ccccc1)N(CCCl)Cc1ccccc1 (stereo not given)
inactive: HCT-15 colon 101% | HT29 colon 84.8% | SNB-75 CNS 103% | SNB-19 CNS 114% | U251 CNS 96.3% | PC-3 prostate 86.8% | SK-MEL-5 melanoma 89.8% | UACC-62 melanoma 102% | LOX IMVI melanoma 93.7% | SK-MEL-28 melanoma 112% | SK-MEL-2 melanoma 101% | EKVX NSCLC 98% | UO-31 renal 94.6% | TK-10 renal 90% | ACHN renal 104% | CAKI-1 renal 94.4% | A498 renal 95.6% | HL-60(TB) leukemia 99.1% | CCRF-CEM leukemia 107%

Nc1ccc(N(CCCl)CCCl)cc1
inactive: HCT-15 colon 75.3% | HT29 colon 66.9% | SNB-75 CNS 67.5% | SNB-19 CNS 87.1% | U251 CNS 64.4% | PC-3 prostate 70.5% | SK-MEL-5 melanoma 78.9% | UACC-62 melanoma 44.1% | LOX IMVI melanoma 45.7% | SK-MEL-28 melanoma 98.5% | SK-MEL-2 melanoma 132% | SN12C renal 39.5% | UO-31 renal 49.9% | TK-10 renal 96.2% | ACHN renal 20.9% | A498 renal 113% | HL-60(TB) leukemia 17.2%
active: CAKI-1 renal -8.97%

CC(/C=N/N=C(\N)N[N+](=O)[O-])=N\N=C(/N)N[N+](=O)[O-]
inactive: HCT-15 colon 94.7% | HT29 colon 116% | SNB-75 CNS 85.7% | SNB-19 CNS 97.9% | U251 CNS 99.4% | PC-3 prostate 101% | SK-MEL-5 melanoma 103% | UACC-62 melanoma 102% | LOX IMVI melanoma 110% | SK-MEL-28 melanoma 105% | SK-MEL-2 melanoma 152% | SN12C renal 101% | UO-31 renal 97.9% | TK-10 renal 119% | ACHN renal 96% | CAKI-1 renal 96.7% | A498 renal 102% | HL-60(TB) leukemia 90.2%

CN(C)P(=O)(Nc1ccccn1)N(C)C
inactive: HCT-15 colon 109% | HT29 colon 100% | SNB-75 CNS 88.4% | SNB-19 CNS 104% | U251 CNS 98% | PC-3 prostate 92.9% | SK-MEL-5 melanoma 98.4% | UACC-62 melanoma 110% | LOX IMVI melanoma 96.8% | SK-MEL-28 melanoma 117% | SK-MEL-2 melanoma 104% | SN12C renal 99.6% | UO-31 renal 93.7% | TK-10 renal 104% | ACHN renal 104% | CAKI-1 renal 101% | A498 renal 90.7% | HL-60(TB) leukemia 95.5%

CCCCOP(OCCCC)OCCCC
inactive: HCT-15 colon 90.5% | HT29 colon 93.6% | SNB-75 CNS 99.6% | SNB-19 CNS 110% | U251 CNS 104% | PC-3 prostate 115% | SK-MEL-5 melanoma 102% | UACC-62 melanoma 114% | LOX IMVI melanoma 100% | SK-MEL-28 melanoma 112% | SK-MEL-2 melanoma 99.7% | SN12C renal 108% | UO-31 renal 98.4% | TK-10 renal 97.8% | ACHN renal 94.4% | CAKI-1 renal 99.8% | A498 renal 124% | HL-60(TB) leukemia 116% | CCRF-CEM leukemia 107%
